Measurements published in patent US10456407B2, “Combination therapy for treating cancer” (Epizyme, Inc., priority 2015, dated 2019).

Tested on: SU-DHL4 cells
Experiment: RT2 Glucocorticoid signaling PCR array, SU-DHL4 (SUDHL4) cell line (Table 4f)
Format: cell-based
Conditions: SUDHL4, 4 days, vs DMSO
From the text: Expression levels of (A). Sestrin; (B). TNF and (C) GILZ normalized to DMSO controls for each cell line with the indicated single agent or combination.

Question: With `C[C@]12C=CC(=O)C=C1CC[C@@H]1[C@@H]2[C@@H](O)C[C@@]2(C)[C@H]1CC[C@]2(O)C(=O)CO` [Prednisolone, prednisolone] as the molecule, how does the “Fold Change, ADARB1” value read?
Answer: 1.430

Question: What about the “Fold Change, AFF1” value of the same molecule?
Answer: 1.346

Question: And the “Fold Change, AK2” value?
Answer: 2.108

Question: And the “Fold Change, AMPD3” value?
Answer: 1.854

Question: And the “Fold Change, ANGPTL4” value?
Answer: 2.066

Question: What about the “Fold Change, ANXA4” value of the same molecule?
Answer: 1.853

Question: What about the “Fold Change, ARID68” value of the same molecule?
Answer: 1.095

Question: And the “Fold Change, ASPH” value?
Answer: 1.367

Question: What about the “Fold Change, ATF4” value of the same molecule?
Answer: 1.213

Question: What about the “Fold Change, BCL6” value of the same molecule?
Answer: 1.733

Question: What about the “Fold Change, CEBPA” value of the same molecule?
Answer: 1.232

Question: And the “Fold Change, CEBPB” value?
Answer: 0.694

Question: What about the “Fold Change, CREB1” value of the same molecule?
Answer: 1.462

Question: What about the “Fold Change, CREB3” value of the same molecule?
Answer: 1.474

Question: And the “Fold Change, CREB3L4” value?
Answer: 1.148

Question: What about the “Fold Change, CYB561” value of the same molecule?
Answer: 1.647

Question: And the “Fold Change, DDIT4” value?
Answer: 3.813

Question: And the “Fold Change, DUSP1” value?
Answer: 2.133

Question: And the “Fold Change, EHD3” value?
Answer: 2.505

Question: And the “Fold Change, FK8PS” value?
Answer: 2.994

Question: And the “Fold Change, GDPD1” value?
Answer: 1.328

Question: What about the “Fold Change, GHRHR” value of the same molecule?
Answer: 0.880

Question: What about the “Fold Change, H6PD” value of the same molecule?
Answer: 0.895

Question: What about the “Fold Change, HNRPLL” value of the same molecule?
Answer: 1.219

Question: And the “Fold Change, IL6R” value?
Answer: 1.438

Question: What about the “Fold Change, IL10” value of the same molecule?
Answer: 1.094

Question: What about the “Fold Change, KLF9” value of the same molecule?
Answer: 1.767

Question: What about the “Fold Change, KLF13” value of the same molecule?
Answer: 1.911

Question: And the “Fold Change, MT2A” value?
Answer: 0.914

Question: And the “Fold Change, NFKBIA” value?
Answer: 1.636

Question: What about the “Fold Change, NR3C1” value of the same molecule?
Answer: 1.344

Question: What about the “Fold Change, PDCD7” value of the same molecule?
Answer: 0.756

Question: And the “Fold Change, PDP1” value?
Answer: 1.435

Question: What about the “Fold Change, PER1” value of the same molecule?
Answer: 1.724

Question: What about the “Fold Change, PER2” value of the same molecule?
Answer: 2.145

Question: And the “Fold Change, PIK3R1” value?
Answer: 1.856

Question: And the “Fold Change, PLEKHF1” value?
Answer: 2.437

Question: What about the “Fold Change, POU2F1” value of the same molecule?
Answer: 1.349

Question: What about the “Fold Change, POU2F2” value of the same molecule?
Answer: 1.597

Question: What about the “Fold Change, RASA3” value of the same molecule?
Answer: 1.651

Question: And the “Fold Change, RGS2” value?
Answer: 1.294

Question: What about the “Fold Change, RHOB” value of the same molecule?
Answer: 0.605

Question: And the “Fold Change, SGK1” value?
Answer: 1.271

Question: And the “Fold Change, SLC10A6” value?
Answer: 14.662

Question: What about the “Fold Change, SLC19A2” value of the same molecule?
Answer: 1.993

Question: And the “Fold Change, SLC22A5” value?
Answer: 1.126

Question: What about the “Fold Change, SNTA1” value of the same molecule?
Answer: 1.610

Question: And the “Fold Change, SPHK1” value?
Answer: 0.795

Question: And the “Fold Change, SPSB1” value?
Answer: 0.954

Question: What about the “Fold Change, STAT5A” value of the same molecule?
Answer: 1.309

Question: What about the “Fold Change, STAT5B” value of the same molecule?
Answer: 1.204

Question: What about the “Fold Change, TBL1XR1” value of the same molecule?
Answer: 1.648

Question: What about the “Fold Change, TNF” value of the same molecule?
Answer: 7.185

Question: What about the “Fold Change, TNFAIP3” value of the same molecule?
Answer: 0.559

Question: What about the “Fold Change, TSC22D3” value of the same molecule?
Answer: 4.497

Question: What about the “Fold Change, USP2” value of the same molecule?
Answer: 3.207

Question: What about the “Fold Change, USPS4” value of the same molecule?
Answer: 2.085

Question: And the “Fold Change, VDR” value?
Answer: 1.994

Question: What about the “Fold Change, VLDLR” value of the same molecule?
Answer: 0.438

Question: And the “Fold Change, ZFP36” value?
Answer: 1.455

Question: What about the “Fold Change, ZHX3” value of the same molecule?
Answer: 1.825

Question: What about the “Fold Change, ZNF281” value of the same molecule?
Answer: 1.692
